Target: T1, A3 adenosine receptor (human A3AR) (Homo sapiens, UniProt P0DMS8)
T1 construct: gene ADORA3
Assay: PathHunter beta-arrestin translocation antagonism vs 2-Cl-IB-MECA in CHO-K1 cells expressing human A3AR; also cAMP HTRF agonism (EC50 […])
Format: cell-based

The chains behind the UniProt entries cited, without tags or fusion partners.
UniProt P0DMS8, whole entry: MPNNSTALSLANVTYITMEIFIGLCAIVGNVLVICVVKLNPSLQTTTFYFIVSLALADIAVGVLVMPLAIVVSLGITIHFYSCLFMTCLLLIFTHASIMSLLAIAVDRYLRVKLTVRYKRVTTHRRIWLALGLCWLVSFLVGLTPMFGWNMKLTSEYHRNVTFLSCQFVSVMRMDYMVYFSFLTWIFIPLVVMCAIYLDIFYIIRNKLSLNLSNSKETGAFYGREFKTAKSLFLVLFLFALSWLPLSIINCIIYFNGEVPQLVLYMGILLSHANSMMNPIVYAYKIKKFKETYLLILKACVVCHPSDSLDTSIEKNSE

- IC50: 44 nM
SMILES: O[C@@H]1[C@H](O)CS[C@H]1n1cnc2c(NCc3cccc(Cl)c3)nc(Cl)nc21 [FM101, [(2R,3R,4S)-2-[2-chloro-6-(3-chlorobenzylamino)-9H purine-9-yl]-tetrahydrothiophene-3,4-diol]]

Source: article PMC7105940, “Safety evaluation of FM101, an A3 adenosine receptor modulator, in rat, for developing as therapeutics of glaucoma and hepatitis” (EXCLI Journal, 2020)
